# Only a part is listed here, and it is no random draw. Some tests of the compounds listed are not included; inactive here does not mean inactive elsewhere. Activity calls are given as the source filed them. No stated cut-off is given here; in the data, active means inhibition above about 27%; inactive means the rest.
# Protein sequences, listed by entry. Tags and fused reporters are not part of them.
# UniProt O43603, whole entry: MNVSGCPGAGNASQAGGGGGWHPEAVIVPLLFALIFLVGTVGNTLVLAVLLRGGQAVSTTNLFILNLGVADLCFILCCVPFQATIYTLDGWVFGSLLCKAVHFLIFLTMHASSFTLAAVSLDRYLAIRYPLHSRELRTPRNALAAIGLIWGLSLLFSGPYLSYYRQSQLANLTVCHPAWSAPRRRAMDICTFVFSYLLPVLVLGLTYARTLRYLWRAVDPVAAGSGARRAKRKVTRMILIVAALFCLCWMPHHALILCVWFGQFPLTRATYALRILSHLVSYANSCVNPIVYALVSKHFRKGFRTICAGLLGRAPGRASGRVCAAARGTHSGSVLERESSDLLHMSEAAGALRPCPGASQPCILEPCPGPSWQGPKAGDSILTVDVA
# Molecular target: Galanin receptor type 2 (Homo sapiens) (UniProt O43603)
# Assay: GALR2 antagonists in receptor-expressing cells, primary screen (AID 828);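 further: cells stimulated with galanin 1-16 at roughly its EC80; 0% = agonist challenge control and 100% = basal control without agonist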
# Conditions: antagonist mode, at 4 µM, stronger effect = higher value
row,Compound,inhibition
1,CC(C)N1C(=O)CC2(CCN(CCOC(=O)C(O)(c3ccccc3)c3ccccc3)CC2)C1=O,inactive: -5.5%
2,CCN1CCCC(OC(=O)C2(O)c3ccccc3C=Cc3ccccc32)C1 (stereo not given),inactive: -3.44%
3,CN(C)C1CCCC1OC(=O)C(O)(c1ccccc1)c1ccccc1 (stereo not given),inactive: 4.38%
4,CN(C)c1cccc(C(=O)NCC2(N(C)C)CCCCC2)c1,inactive: 1.02%
5,O=C(OC1CN2CCC1CC2)C(CO)(c1ccccc1)c1ccccc1 (stereo not given),inactive: 13.9%

# — PubChem BioAssay AID828 (The Scripps Research Institute Molecular Screening Center, 2007)
